Sequences of proteins named here, by UniProt entry; tags and fusion partners are left off. Residues count along the entry.
UniProt O60894, 27-148 limits assumed: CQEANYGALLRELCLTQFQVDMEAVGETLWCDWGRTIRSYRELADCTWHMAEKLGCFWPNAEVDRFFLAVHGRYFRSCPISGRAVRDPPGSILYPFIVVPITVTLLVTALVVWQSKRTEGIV
UniProt Q16602, 23-461 limits assumed: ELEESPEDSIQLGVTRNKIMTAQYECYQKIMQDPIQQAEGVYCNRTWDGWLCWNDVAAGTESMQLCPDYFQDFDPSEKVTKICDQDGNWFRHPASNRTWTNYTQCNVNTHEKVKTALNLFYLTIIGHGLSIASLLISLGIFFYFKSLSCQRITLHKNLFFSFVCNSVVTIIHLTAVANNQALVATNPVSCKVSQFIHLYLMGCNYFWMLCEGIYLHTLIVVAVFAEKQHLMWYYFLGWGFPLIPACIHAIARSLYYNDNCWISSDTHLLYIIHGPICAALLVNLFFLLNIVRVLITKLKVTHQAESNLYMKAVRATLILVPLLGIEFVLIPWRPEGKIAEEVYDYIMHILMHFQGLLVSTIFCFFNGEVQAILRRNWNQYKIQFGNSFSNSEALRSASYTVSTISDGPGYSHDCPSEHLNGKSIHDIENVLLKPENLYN

According to patent US8163737B2 (Vertex Pharmaceuticals Incorporated, priority 2006, dated 2012):

How the values were obtained:
[1] = biological target: endogenous CGRP receptor (Homo sapiens, UniProt O60894+Q16602); assay: CGRP functional antagonism using SK-N-MC-BLA (4C10), β-lactamase transcriptional reporter assay; assay type: cell-based; conditions: SK-N-MC (4C10) cells, inhibition of β-lactamase expression in the presence of 200 pM CGRP
[2] = biological target: CGRP receptor (SK-N-MC membrane) (Homo sapiens, UniProt O60894+Q16602); assay: I125-CGRP binding displacement assay on purified SK-N-MC membrane

Row | Compound | IC50 [1] [nM] | Ki [2] [nM]
1 | CC(C)C[C@H](CO)N1C(=O)C(CC(=O)N2CCC(N3Cc4ccccc4NC3=O)CC2)SC1c1ccccc1 (single isomer, unassigned) [133] | > 5000 | –
2 | CC(C)CC(CO)N1C(=O)C(CC(=O)N2CCC(N3Cc4ccccc4NC3=O)CC2)SC1c1ccccc1 (stereo not drawn) | 1000 to 5000 | –
3 | CC(C)CCN1C(=O)C(CC(=O)N2CCC(N3Cc4ccccc4NC3=O)CC2)SC1c1ccccc1N1CCOCC1 (stereo not drawn) | < 1000 | < 1000
4 | CC(C)CCN1C(=O)C(CC(=O)N2CCC(N3Cc4ccccc4NC3=O)CC2)SC1c1ccccc1N1CCCCC1 (stereo not drawn) | < 1000 | < 1000
5 | CC(C)CCN1C(=O)C(CC(=O)N2CCC(N3Cc4ccccc4NC3=O)CC2)SC1c1cccnc1N1CCOCC1 (stereo not drawn) | < 1000 | –
6 | CC(C)CCN1C(=O)C(CC(=O)N2CCC(N3Cc4ccccc4NC3=O)CC2)SC1c1ccccc1N1CCN(C)CC1 (stereo not drawn) | < 1000 | < 1000
7 | CC(C)CCN1C(=O)C(CC(=O)N2CCC(N3Cc4ccccc4NC3=O)CC2)SC1c1ccccc1-n1cccn1 (stereo not drawn) | < 1000 | < 1000
8 | CN1CCN(c2cccc(F)c2C2SC(CC(=O)N3CCC(n4cc(-c5ccccc5)[nH]c4=O)CC3)C(=O)N2CCC(C)(C)C)CC1 (stereo not drawn) | < 1000 | < 1000
9 | CC(C)C[C@H](CO)N1C(=O)C(CC(=O)N2CCC(N3Cc4ccccc4NC3=O)CC2)SC1c1ccccc1 (single isomer, unassigned) [117] | 1000 to 5000 | –
10 | CC(C)CCN1C(=O)C(CC(=O)N2CCC(N3Cc4ccccc4NC3=O)CC2)SC1c1ccccc1N1CCC(O)CC1 (stereo not drawn) | < 1000 | < 1000
11 | CC(C)(C)CCN1C(=O)C(CC(=O)N2CCC(n3c(=O)[nH]c4ccccc43)CC2)SC12CCCc1ccccc12 (stereo not drawn) | > 5000 | –
12 | CC(C)CCN1C(=O)C(CC(=O)N2CCC(N3Cc4cccnc4NC3=O)CC2)SC1c1ccccc1N1CCN(C)CC1 (stereo not drawn) | < 1000 | –
13 | CC(C)(C)CCN1C(=O)C(CC(=O)N2CCC(N3Cc4ccccc4NC3=O)CC2)SC1c1cccc(F)c1F (stereo not drawn) | < 1000 | –
14 | CC(C)CCN1C(=O)C(CC(=O)N2CCC(N3Cc4ccccc4NC3=O)CC2)SC1c1ccccc1-n1ccnc1 (stereo not drawn) | < 1000 | < 1000
